These results are taken from patent US20210230178A1, “TRIOXACARCIN ANALOGS AND DIMERS AS POTENT ANTICANCER AGENTS” (William Marsh Rice University, priority 2017, published 2021).

For test [1], the system named is HEK 293T (human embryonic kidney cancer cell line). To be noted: read-out: IC50 HEK 293T.
Test [2] concerns MES SA (human uterine sarcoma). To be noted: read-out: IC50 MES SA.
Test [3] relates to MES SA DX (human uterine sarcoma cell line with marked multidrug resistance). The settings on record: read-out: IC50 MES SA DX.

Usually IC50 stands for the concentration that gives 50% inhibition. With “(1S,2S,3aS,4R,13aR)-2-(1,3-Dioxolan-2-yl)-12-hydroxy-7-methoxy-5-methyl-11-oxo-3a,4,8,9,10,11-hexahydro-13aH-spiro[2,4-epoxyfuro[3,2-b]naphtho[2,3-h]chromene-1,2′-oxiran]-13a-yl 2,4-dideoxy-4-(isopropylamino)-3-O-methylpentopyranoside [Trx11]”, the IC50 in test [1] is 0.92 nM; in test [2], 1.07 nM; in test [3], 3.03 nM.
